Results as given in patent US4352810A, “1-Substituted hydroxyiminomethyl-pyridinium salts, with an activity against organophosphate poisonings” (dated 1982).

Biological target: tabun-inhibited acetylcholinesterase (Bos taurus, UniProt P23795)
Settings: 10 μM; for kobs, velocity constant of the reactivation process: pH 7.5, 25° C. (Table B); for % react after 2h / % react, percentage reactivation after 24 hours (footnote a): pH 7.5, 25° C.; for % react after 2h: 2 hours (Table B); for % react, percentage reactivation after 24 hours (footnote a): 24 hours (Table B)

SMILES	kobs, velocity constant of the reactivation process	% react after 2h [%]	% react, percentage reactivation after 24 hours (footnote a) [%]
O=[N+]([O-])c1ccc(C[n+]2ccccc2C=NO)cc1	0.77 ± 0.04 10^-3 min^-1	5	–
C[N+](C)(C)c1ccc(C[n+]2ccccc2C=NO)cc1	< 0.1 10^-3 min^-1	–	5
CC(c1ccccc1)[n+]1ccc(C=NO)cc1 (stereo not drawn)	< 0.1 10^-3 min^-1	–	4
ON=Cc1cccc[n+]1Cc1cccs1	4.78 ± 0.09 10^-3 min^-1	38	–
ON=Cc1cccc[n+]1Cc1ccsn1	7.5 ± 0.1 10^-3 min^-1	51	–
ON=Cc1cccc[n+]1Cc1cc(I)cc(I)c1	1.62 ± 0.06 10^-3 min^-1	12	–
ON=Cc1cccc[n+]1Cc1cscn1	1.38 ± 0.03 10^-3 min^-1	10	–
ON=Cc1cccc[n+]1Cc1ccc(Cl)cc1	2.33 ± 0.05 10^-3 min^-1	19	–
ON=Cc1ccc[n+](Cc2ccccc2)c1	< 0.1 10^-3 min^-1	–	1
ON=Cc1cccc[n+]1Cc1ccco1	1.78 ± 0.06 10^-3 min^-1	15	–
ON=Cc1cccc[n+]1Cc1cccc(C(F)(F)F)c1	0.69 ± 0.04 10^-3 min^-1	4	–
ON=Cc1cccc[n+]1CC1=CCC=CC1	3.98 ± 0.07 10^-3 min^-1	33	–
COc1ccc(C[n+]2ccccc2C=NO)cc1	0.44 ± 0.12 10^-3 min^-1	2	–
ON=Cc1cccc[n+]1CCc1ccccc1	0.60 ± 0.04 10^-3 min^-1	3	–
ON=Cc1cccc[n+]1Cc1cnsc1	1.24 ± 0.04 10^-3 min^-1	9	–
ON=Cc1cc[n+](Cc2c[nH]cn2)cc1	< 0.1 10^-3 min^-1	–	2
Cc1cccc(C[n+]2ccccc2C=NO)c1	2.72 ± 0.04 10^-3 min^-1	23	–
ON=Cc1cccc[n+]1Cc1ccc2ccccc2c1	1.39 ± 0.03 10^-3 min^-1	11	–
